## Binding of CDR-mutated scFvs to a peptide of the spike HR2 region

Values reported by Engelhart et al. 2022, doi:10.1038/s41597-022-01779-4 (FLAb copy).

All variants were tested on one target, the spike HR2 peptide PDVDLGDISGINAS (SARS-CoV-2).

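Variants in AAYL52 differ from the parent at up to three CDR positions; double and triple changes were sampled at random. AlphaSeq pools MATa yeast showing the antibodies with MATalpha yeast showing the peptide. Pairs that bind mate more often; barcode pairs of the diploids are counted by sequencing. Read counts were normalised to the haploid input and turned into Kd by a linear fit to BCL2-family pairs of known affinity, for each replicate. Each pool was mated in three replicate cultures.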

The variants keep the heavy chain, the linker and the frameworks of Ab-95 (scFv order VH, three GGGGS repeats, VL).
VH: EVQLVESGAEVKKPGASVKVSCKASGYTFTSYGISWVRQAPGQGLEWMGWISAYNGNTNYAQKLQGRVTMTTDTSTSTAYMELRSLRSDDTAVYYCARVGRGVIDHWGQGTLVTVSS
VL: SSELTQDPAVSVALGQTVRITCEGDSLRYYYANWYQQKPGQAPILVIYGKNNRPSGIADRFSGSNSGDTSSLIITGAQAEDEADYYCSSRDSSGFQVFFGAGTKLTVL

The parent's light chain CDRs are EGDSLRYYYAN, GKNNRPS, SSRDSSGFQVF; each variant's own CDRs replace them letter for letter. Numbers give log10(Kd / nM), so 0 is 1 nM and 3 is 1 µM. Smaller is tighter. A pair that was not seen in that replicate is written "nd"; this usually means weak binding, but a binder can also be missed. Empty control strains, which show no peptide, gave a signal in 28% of pairings with library AAYL52; the median was 3.91 and 95% of these signals were weaker than 2.90. No background was subtracted. The control count says in how many pairings with the empty strains this scFv gave a signal, with their mean in brackets. Parent in this assay: reference entry 2.31, copy in this library 2.25.

CDR-L1,CDR-L2,CDR-L3,"replicates, log10 nM",empty controls
EYHSLRYYYAN,GKNNRPS,SSRDHSGFQVF,3.80 4.62 3.84,4/9 (4.59)
EGDSMRYYIAN,GKNNRPS,SSRDSSAFQVF,4.47 3.31 nd,2/9 (3.10)
EGDSLRFYYAH,GKNNRPS,SSRFSSGFQVF,5.23 3.94 nd,2/9 (3.54)
EGDSLRYYYAN,GKNNYPS,SSRDSSFFGVF,4.14 3.13 nd,1/9 (4.46)
EKDSLWYYYAN,GKNNRPS,SSRDSSGFQVC,4.34 nd 3.95,4/9 (4.09)
EGDSLRIYYAN,GKNNRPS,SSRDSSGFQKF,nd nd nd,0/9
EGDSLRTYYAN,GKNNRPS,SSRDSSGFFVF,2.47 1.89 1.71,5/9 (3.61)
EGDSLLYYYMN,GKYNRPS,SSRDSSGFQVF,4.08 3.53 3.44,4/9 (3.39)
EADGMRYYYAN,GKNNRPS,SSRDSSGFQVF,2.18 2.58 2.04,4/9 (3.46)
EHDSLRYYCAN,FKNNRPS,SSRDSSGFQVF,nd nd nd,1/9 (3.35)
EGDSLRYYYAN,WKNNFPS,SSRDSSGQQVF,nd nd nd,0/9
EGDNLRYPYKN,GKNNRPS,SSRDSSGFQVF,1.49 1.73 1.34,4/9 (3.41)
EGDSLRYYYAN,GKMNRPL,SSRDSSGFQVF,3.25 3.28 3.95,2/9 (3.61)
EGDSLRYYYAN,GKNKYPE,SSRDSSGFQVF,3.34 3.52 3.44,2/9 (3.74)
EGDSWRYYYAN,DANNRPS,SSRDSSGFQVF,nd 4.15 nd,1/9 (5.31)
EGDSLRYYCAN,GKNNRDS,SSRDSSYFQVF,nd nd nd,2/9 (4.00)
EGGSLRYYKAN,GKNNRPS,SSRGSSGFQVF,4.14 4.72 nd,3/9 (3.78)
EGESLRYYYAN,GKNNRYS,SSRDSSGFQVN,nd nd nd,0/9
EGDSYRYYYAR,GKNNRPS,SSRDSQGFQVF,4.52 3.25 nd,2/9 (4.02)
EGDSLRYYYAH,PKNNRPS,SSFDSSGFQVF,4.60 nd 3.81,2/9 (3.21)
EGDSLRYYYAN,GWNNRPS,SSRDSVGFQQF,4.06 nd nd,2/9 (3.81)
EGDSLRYYKAN,GKFNRPS,LSRDSSGFQVF,nd nd nd,1/9 (4.88)
EGDSLRYYYAN,GKNNRPI,VSRYSSGFQVF,2.86 2.34 2.47,3/9 (4.35)
EWDSLRYYYAN,GRNNRPS,SSFDSSGFQVF,5.66 4.61 3.58,3/9 (4.01)
QGDSLRYYYAN,GKRNRPS,SSRDSSGFSVF,3.19 2.83 2.67,4/9 (3.57)
EGKQLRYYYAN,GKNNRPS,SSRHSSGFQVF,nd 4.31 2.91,5/9 (4.24)
EGDLLRYYYAN,GVNNRPS,SSRDSSQFQVF,nd nd nd,3/9 (2.77)
EGDSLRYYYAE,GKGNRPS,SSRDSSGFQVQ,4.93 nd nd,2/9 (3.70)
EGDSLRYYYAN,GKNNRPS,YSRDSSGCDVF,4.70 4.09 nd,1/9 (3.17)
EGDSLRYYYAN,GKHNRPS,WSRDSSGFQVF,3.96 2.68 2.86,4/9 (3.52)
EGDSLRYYYWN,GKNNLPS,SSRDSSGFIVF,3.19 4.42 4.03,2/9 (3.30)
EMDSLRLYYAN,GKSNRPS,SSRDSSGFQVF,nd 2.72 nd,5/9 (4.13)
EGDSLRYYYAN,GANNRPS,SSPDSSCFQVF,nd nd nd,0/9
EQDSLIKYYAN,GKNNRPS,SSRDSSGFQVF,nd 4.32 nd,1/9 (3.80)
EGDSLRYYYAN,GKHNRSS,SSRDSSYFQVF,2.72 3.36 3.97,3/9 (3.78)
EGDSLRYHYAN,GKNNRPS,SLRDSSFFQVF,2.45 3.32 2.58,3/9 (4.28)
EGDMLRYYYAN,NKNNRQS,SSRDSSGFQVF,nd 4.29 nd,2/9 (4.39)
EQDSLRYYYAN,GKNNIPS,SFRDSSGFQVF,2.76 nd nd,1/9 (4.73)
EGDSLRYHYAN,GILNRPS,SSRDSSGFQVF,2.74 2.73 2.74,4/9 (3.65)
EGDSLRYKYAN,GLNNNPS,SSRDSSGFQVF,nd 3.73 nd,2/9 (3.59)
EGDKLRYYYAN,GKNNRPS,SSRDSSGFQKF,3.28 2.93 3.53,3/9 (4.10)
EGDSLKYKYAN,GKNNMPS,SSRDSSGFQVF,2.66 2.73 2.36,5/9 (3.89)
EGDSLRYYYAN,GKNNRFS,IGRDSSGFQVF,5.41 4.15 nd,3/9 (3.60)
EGDSLRYYYFN,GKNNRPS,SSRDSSGFQIF,nd nd nd,0/9

Excerpt, the first 7 entries:

CDR-L1,CDR-L2,CDR-L3,"replicates, log10 nM",empty controls
EYHSLRYYYAN,GKNNRPS,SSRDHSGFQVF,3.80 4.62 3.84,4/9 (4.59)
EGDSMRYYIAN,GKNNRPS,SSRDSSAFQVF,4.47 3.31 nd,2/9 (3.10)
EGDSLRFYYAH,GKNNRPS,SSRFSSGFQVF,5.23 3.94 nd,2/9 (3.54)
EGDSLRYYYAN,GKNNYPS,SSRDSSFFGVF,4.14 3.13 nd,1/9 (4.46)
EKDSLWYYYAN,GKNNRPS,SSRDSSGFQVC,4.34 nd 3.95,4/9 (4.09)
EGDSLRIYYAN,GKNNRPS,SSRDSSGFQKF,nd nd nd,0/9
EGDSLRTYYAN,GKNNRPS,SSRDSSGFFVF,2.47 1.89 1.71,5/9 (3.61)